This assay addresses HDAC6 (Homo sapiens (Human), UniProt Q9UBN7). The experiment in a line: HDAC6 TR-FRET displacement assay. The settings on record: read-out: HDAC6 IC50; displacement of fluorescein labeled tracer from HDAC6; 2 nM HDAC6, 1 nM tracer, 0.5 nM Tb-anti-GST antibody; 30 min pre-incubation, 6 hours at 25° C. The source says:
HDAC6 and Tb-anti-GST antibody were purchased from Signal Chem (cat #PC124) and Cisbio (cat #61GSTTAH), respectively. HEPES, pH 7.5 was purchased from Teknova (Cat #H1575). All other buffer components, NaCl (cat #S5150), KCl (cat #60121), Triton X-100 (cat #T9284), GSH (cat #G4251), BGG (cat #G5009), and BSA (cat #A2153) were purchased from SIGMA.
Displacement of fluorescein labeled tracer 2-(6-hydroxy-3-oxo-3H-xanthen-9-yl)-5-({[5-(4-{[7-(hydroxycarbamoyl)-2H,3H,4H,5H-thieno[2,3-f][1,4]oxazepine-4-carbonyl]amino}phenoxy)pentyl]carbamothioyl}amino)benzoic acid from HDAC6 was measured in vitro using a TR-FRET assay. The assays were performed in 1536-well plates in a total volume of 6 μL in assay buffer consisting of 50 mM HEPES pH 7.5, 50 mM NaCl, 50 mM KCl, 0.01% Triton X-100, 0.5 mM GSH, 0.03% BGG, 0.01% BSA.
For concentration response curves (IC50 determination), Compounds were serially diluted 3-fold from 2 mM highest concentration to generate a 10-point concentration gradient. To perform the assay, 30 nL of compound gradient solutions were transferred to the assay plate using the ECHO acoustic dispenser to achieve a final concentration range of 10 μM to 0.000508 uM in 6 μL reaction. 3 μL of HDAC6 in assay buffer were added to the assay plates and pre-incubate at room temp. for 30 mins. After pre-incubation, 3 μL of the tracer and TB-anti-GST antibody mix were added to the assay plates. The final concentrations of HDAC6, tracer, and TB-anti-GST antibody for each assay are 2 nM, 1 nM, and 0.5 nM, respectively. Binding reactions were equilibrated at 25° C. for an additional 6 hours, then read in endpoint mode on the BMG PheraStar (BMG labtech) equipped with a 337-520-490 optical module. The ratio of the 520/490 nm emission was calculated to determine the relative amounts of HDAC6 and tracer complex residue in each well.
The percent inhibition of HDAC6 (IC50) was calculated according to the following equation.
As set forth in Table 1, “A” indicates an HDAC6 IC50 value of less than 200 nM; “B” indicates an HDAC6 IC50 value of greater than or equal to 200 nM and less than 500 nM; and “C” indicates an HDAC6 IC50 value of greater than or equal to 500 nM and less than 5 μM.

Sequences of proteins named here, by UniProt entry; tags and fusion partners are left off.
UniProt Q9UBN7, whole entry: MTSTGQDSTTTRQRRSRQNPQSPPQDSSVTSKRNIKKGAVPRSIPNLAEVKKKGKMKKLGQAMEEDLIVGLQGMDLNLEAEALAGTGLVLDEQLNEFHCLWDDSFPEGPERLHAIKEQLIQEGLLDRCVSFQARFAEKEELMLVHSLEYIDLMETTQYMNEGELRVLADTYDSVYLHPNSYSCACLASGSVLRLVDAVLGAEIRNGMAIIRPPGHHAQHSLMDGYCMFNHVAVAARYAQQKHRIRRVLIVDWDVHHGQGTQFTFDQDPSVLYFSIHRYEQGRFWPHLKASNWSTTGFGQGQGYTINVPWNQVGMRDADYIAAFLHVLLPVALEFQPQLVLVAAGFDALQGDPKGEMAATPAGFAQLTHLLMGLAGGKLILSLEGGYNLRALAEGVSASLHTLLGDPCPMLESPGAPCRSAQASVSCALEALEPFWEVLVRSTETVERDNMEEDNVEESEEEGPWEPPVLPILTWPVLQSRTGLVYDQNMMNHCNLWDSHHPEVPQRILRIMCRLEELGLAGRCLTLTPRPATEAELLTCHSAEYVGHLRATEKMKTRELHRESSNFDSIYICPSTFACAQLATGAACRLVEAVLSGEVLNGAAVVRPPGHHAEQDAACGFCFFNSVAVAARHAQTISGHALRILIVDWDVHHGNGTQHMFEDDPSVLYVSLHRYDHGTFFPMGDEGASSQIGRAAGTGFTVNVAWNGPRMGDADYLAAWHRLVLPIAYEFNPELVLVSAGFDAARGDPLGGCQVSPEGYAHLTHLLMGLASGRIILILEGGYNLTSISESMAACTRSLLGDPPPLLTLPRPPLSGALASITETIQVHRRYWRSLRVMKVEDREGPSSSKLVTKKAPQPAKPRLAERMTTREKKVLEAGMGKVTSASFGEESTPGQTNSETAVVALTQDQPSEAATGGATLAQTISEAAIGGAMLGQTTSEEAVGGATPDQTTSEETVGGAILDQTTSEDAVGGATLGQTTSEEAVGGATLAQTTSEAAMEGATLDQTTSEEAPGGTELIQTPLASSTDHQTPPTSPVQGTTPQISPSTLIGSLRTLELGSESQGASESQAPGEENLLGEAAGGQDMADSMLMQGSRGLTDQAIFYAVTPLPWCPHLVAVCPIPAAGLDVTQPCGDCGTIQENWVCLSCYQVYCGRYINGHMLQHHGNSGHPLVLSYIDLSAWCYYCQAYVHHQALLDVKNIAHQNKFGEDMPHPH

Drawing on US20250263405A1, “HISTONE DEACETYLASE 6 INHIBITOR COMPOUNDS AND USES THEREOF” (VALO HEALTH, INC., priority 2021, published 2025), this text covers IC50 for 28 molecules.

A value given as a limit tells only on which side of the number the result lay.

For orientation: IC50 means the point on the concentration scale where inhibition reaches its midpoint.

`C[C@H]1COc2cc(-c3noc(C(F)(F)F)n3)cc(F)c2CN1C(=O)[C@@H]1CCN(C)C1`: the IC50 was in the range of 500 to 5000 nM.
Under `C[C@H]1COc2cc(-c3noc(C(F)(F)F)n3)cc(F)c2CN1C(=O)C1(C)CCNCC1` stands 500 to 5000 nM; under `C[C@@]1(C(=O)N2Cc3ccc(-c4noc(C(F)(F)F)n4)cc3OC[C@@H]2c2ccccc2)CCOC1`, 200 to 500 nM; under `C[C@H]1COc2cc(-c3noc(C(F)(F)F)n3)cc(F)c2CN1C(=O)[C@H]1CCNC1=O`, below 200 nM.
In the case of `C[C@H]1COc2cc(-c3noc(C(F)(F)F)n3)cc(F)c2CN1C(=O)c1cnn2ccccc12`, the 50% inhibitory concentration (IC50) was 200 to 500 nM.
On to `C[C@H]1COc2cc(-c3noc(C(F)(F)F)n3)cc(F)c2CN1C(=O)C(C)(C)N`, for which the half-maximal inhibitory concentration (IC50) was 500 to 5000 nM.
For `C[C@H]1COc2cc(-c3noc(C(F)(F)F)n3)cc(F)c2CN1C(=O)CC(C)(C)O`, the IC50 was below 200 nM.
With `C[C@H]1COc2cc(-c3noc(C(F)(F)F)n3)cc(F)c2CN1C(=O)C1(O)CC1`, the IC50 is below 200 nM.
For the molecule `C[C@H]1COc2cc(-c3noc(C(F)(F)F)n3)cc(F)c2CN1C(=O)[C@@H]1CCCO1`, the IC50 was in the range of 200 to 500 nM.
`C[C@]1(C(=O)N2Cc3ccc(-c4noc(C(F)(F)F)n4)cc3OC[C@@H]2c2ccccc2)CCOC1`: the IC50 was below 200 nM.
With `C[C@H]1COc2cc(-c3noc(C(F)(F)F)n3)cc(F)c2CN1C(=O)c1ccc(N2CCOCC2)nc1` the figure was 200 to 500 nM; with `C[C@H]1COc2cc(-c3noc(C(F)(F)F)n3)cc(F)c2CN1C(=O)C1(F)CCN(C)CC1`, 500 to 5000 nM; with `C[C@H]1COc2cc(-c3noc(C(F)(F)F)n3)cc(F)c2CN1C(=O)[C@H]1CCN(C)C1`, 500 to 5000 nM.
Turning to `C[C@H]1COc2cc(-c3noc(C(F)(F)F)n3)cc(F)c2CN1C(=O)C12CCN(CC1)CC2`, the IC50 was 200 to 500 nM.
With `C[C@H]1COc2cc(-c3noc(C(F)(F)F)n3)cc(F)c2CN1C(=O)CCc1nccs1` the figure was below 200 nM; with `C[C@H]1COc2cc(-c3noc(C(F)(F)F)n3)cc(F)c2CN1C(=O)c1csnn1`, 200 to 500 nM.
For `C[C@H]1COc2cc(-c3noc(C(F)(F)F)n3)cc(F)c2CN1C(=O)CS(C)(=O)=O`, the IC50 is below 200 nM.
Consider `C[C@H]1COc2cc(-c3nnc(C(F)F)o3)ccc2CN1C(=O)C1(C)CCOCC1`, for which the IC50 is below 200 nM.
Under `C[C@H]1COc2cc(-c3noc(C(F)(F)F)n3)cc(F)c2CN1C(=O)c1ccoc1` stands 200 to 500 nM; under `C[C@H]1COc2cc(-c3noc(C(F)(F)F)n3)cc(F)c2CN1C(=O)C1CS(=O)(=O)C1`, 200 to 500 nM.
Consider `C[C@H]1COc2cc(-c3noc(C(F)(F)F)n3)cc(F)c2CN1C(=O)CCN`, for which the concentration for half-maximal inhibition (IC50) is 500 to 5000 nM.
`C[C@H]1COc2cc(-c3noc(C(F)(F)F)n3)cc(F)c2CN1C(=O)CC#N`: the IC50 lay within 200 to 500 nM.
For the molecule `CC1(C(=O)N2CCOc3cc(-c4nnc(C(F)F)o4)ccc3C2)CCOCC1`, the IC50 was below 200 nM.
On to `C[C@H]1COc2cc(-c3noc(C(F)(F)F)n3)ccc2CN1C(=O)C1(C#N)CCN(C)CC1`, for which the IC50 fell in the range of 500 to 5000 nM.
With `Cc1cc(C(=O)N2Cc3c(F)cc(-c4noc(C(F)(F)F)n4)cc3OC[C@@H]2C)on1`, the 50% inhibitory concentration (IC50) is below 200 nM.
With `C[C@H]1COc2cc(-c3noc(C(F)(F)F)n3)cc(F)c2CN1C(=O)C1(C#N)CC1`, the IC50 was in the range of 200 to 500 nM.
On to `C[C@H]1COc2cc(-c3noc(C(F)(F)F)n3)cc(F)c2CN1C(=O)C1CN(C)C1`, for which the IC50 was in the range of 500 to 5000 nM.
In the case of `CNC(=O)c1ccc(C(=O)N2Cc3c(F)cc(-c4noc(C(F)(F)F)n4)cc3OC[C@@H]2C)cc1`, the IC50 lay in the range of 200 to 500 nM.
